# Binding of CDR-mutated scFvs to a peptide of the spike HR2 region

Values reported by Engelhart et al. 2022, doi:10.1038/s41597-022-01779-4 (FLAb copy).

Antigen: PDVDLGDISGINAS, a 14-residue peptide of the SARS-CoV-2 spike HR2 region.

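The parent was found by panning a naive human phage display library on the peptide. In library AAYL51, one, two or three CDR residues were substituted; doubles and triples were drawn at random. Affinity was read by AlphaSeq, a pooled yeast mating assay with surface-displayed partners. Pairs that bind mate more often; barcode pairs of the diploids are counted by sequencing. Read counts were normalised to the haploid input and turned into Kd by a linear fit to BCL2-family pairs of known affinity, for each replicate. Each pool was mated in three replicate cultures.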

Parent: Ab-91, a human scFv built as VL, a 15-residue (Gly4Ser)3 linker, VH. Only the CDRs of the heavy chain vary.
VL: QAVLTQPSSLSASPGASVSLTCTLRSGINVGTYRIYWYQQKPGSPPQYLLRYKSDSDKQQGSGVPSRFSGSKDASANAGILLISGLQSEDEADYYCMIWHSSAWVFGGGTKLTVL
VH: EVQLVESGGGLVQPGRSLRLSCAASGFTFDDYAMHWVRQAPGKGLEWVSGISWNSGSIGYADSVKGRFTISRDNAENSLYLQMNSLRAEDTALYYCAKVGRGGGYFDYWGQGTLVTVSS

Positions count from residue 1 of the parent VH; N54Y puts Y in place of N. Affinities are written as log10 Kd with Kd in nM; a lower number is a better binder. A pair that was not seen in that replicate is written "ND"; this usually means weak binding, but a binder can also be missed. Three control strains display no target. For library AAYL51, 21% of the pairings with them gave a signal, with a median of 4.54 and one signal in twenty below 3.26, so weak values seen in few replicates may be background. For each scFv, signals with the empty controls are counted beside the result, with their mean in brackets.

{"changes": "N54Y+S55H+F106I", "log10 Kd, replicates": "ND 3.58 ND", "signal with controls": "1 of 9 (2.63)"}
{"changes": "Y32L+I58Q+A61M", "log10 Kd, replicates": "4.10 3.93 5.87", "signal with controls": "5 of 9 (4.69)"}
{"changes": "I58V+F106Y", "log10 Kd, replicates": "5.36 ND ND", "signal with controls": "4 of 9 (5.08)"}
{"changes": "D31W+V64L", "log10 Kd, replicates": "2.01 1.85 1.96", "signal with controls": "2 of 9 (4.61)"}
{"changes": "N54Q+S57M+S63T", "log10 Kd, replicates": "2.52 2.33 1.99", "signal with controls": "1 of 9 (4.51)"}
{"changes": "T28D+S52A+W53E", "log10 Kd, replicates": "ND ND ND", "signal with controls": "0 of 9"}
{"changes": "G50M+D62A+G102P", "log10 Kd, replicates": "ND ND ND", "signal with controls": "1 of 9 (3.52)"}
{"changes": "S52T+A61M+G103L", "log10 Kd, replicates": "ND ND ND", "signal with controls": "0 of 9"}
{"changes": "N54E+S57N+F106V", "log10 Kd, replicates": "ND ND ND", "signal with controls": "0 of 9"}
{"changes": "M34K+G56F+G102T", "log10 Kd, replicates": "ND 6.53 4.41", "signal with controls": "4 of 9 (5.83)"}
{"changes": "W53N+G103F", "log10 Kd, replicates": "ND ND ND", "signal with controls": "0 of 9"}
{"changes": "A61P+G102L+Y108Q", "log10 Kd, replicates": "4.07 3.97 5.32", "signal with controls": "5 of 9 (4.58)"}
{"changes": "G50R+I51P", "log10 Kd, replicates": "5.08 5.58 ND", "signal with controls": "3 of 9 (5.77)"}
{"changes": "T28P+A33T+Y108P", "log10 Kd, replicates": "ND ND ND", "signal with controls": "1 of 9 (4.63)"}
{"changes": "G26C+F29A+G100E", "log10 Kd, replicates": "ND 5.66 ND", "signal with controls": "3 of 9 (3.90)"}
{"changes": "G59R+G100Q", "log10 Kd, replicates": "ND ND ND", "signal with controls": "3 of 9 (4.60)"}
{"changes": "G50Q+S57Q+I58N", "log10 Kd, replicates": "ND ND ND", "signal with controls": "0 of 9"}
{"changes": "H35D+I51P+G100R", "log10 Kd, replicates": "3.96 4.71 3.59", "signal with controls": "5 of 9 (4.71)"}
{"changes": "D62V+G102D", "log10 Kd, replicates": "4.72 ND ND", "signal with controls": "2 of 9 (2.72)"}
{"changes": "M34R+W53G+G103D", "log10 Kd, replicates": "ND ND ND", "signal with controls": "0 of 9"}
{"changes": "T28C+H35G+I58C", "log10 Kd, replicates": "ND 2.95 ND", "signal with controls": "1 of 9 (3.51)"}
{"changes": "F29M+S63Q+G103Q", "log10 Kd, replicates": "4.72 3.99 ND", "signal with controls": "3 of 9 (3.99)"}
{"changes": "H35M+Y105Q+Y108M", "log10 Kd, replicates": "ND ND ND", "signal with controls": "0 of 9"}
{"changes": "I51M+G56C+G104Y", "log10 Kd, replicates": "ND 4.36 5.31", "signal with controls": "4 of 9 (4.73)"}
{"changes": "V99S+G104A", "log10 Kd, replicates": "ND ND ND", "signal with controls": "0 of 9"}
{"changes": "W53N+S57Q+V64H", "log10 Kd, replicates": "ND ND ND", "signal with controls": "0 of 9"}
{"changes": "D30M+K65N+G100Q", "log10 Kd, replicates": "1.12 0.99 0.43", "signal with controls": "4 of 9 (5.74)"}
{"changes": "A33G+H35G+G102M", "log10 Kd, replicates": "ND ND 3.35", "signal with controls": "2 of 9 (3.29)"}
{"changes": "K65C+G102T+D107W", "log10 Kd, replicates": "5.96 ND ND", "signal with controls": "2 of 9 (4.73)"}
{"changes": "G102T+G104S", "log10 Kd, replicates": "3.28 2.94 2.68", "signal with controls": "5 of 9 (4.80)"}
{"changes": "G26V+H35C+S63G", "log10 Kd, replicates": "4.61 ND ND", "signal with controls": "0 of 9"}
{"changes": "D31C+A33K+S63T", "log10 Kd, replicates": "4.13 ND ND", "signal with controls": "0 of 9"}

For reference, 2 entries of the list once more:

| changes | log10 Kd, replicates | signal with controls |
|---|---|---|
| D31C+A33K+S63T | 4.13 ND ND | 0 of 9 |
| I51M+G56C+G104Y | ND 4.36 5.31 | 4 of 9 (4.73) |